Assay results published in article PMC9012159, “A comparative biodistribution study of polymeric and lipid-based nanoparticles” (Drug Delivery and Translational Research, 2022).

Details: rat, in vivo

**Q.** With IR780-oleyl as the substance, how does the “dose response (concentration ratio normalized to injected dose)” value read?
**A.** < 1

**Q.** And the “sampling point at which the organ:blood ratio reaches its peak” value?
**A.** 24- to 96 h
